The text below walks through data of patent publication US9597314B2, “Beta-lactamylalkanoic acids for treating premenstrual disorders” (AZEVAN PHARMACEUTICALS, INC., priority 2005, dated 2017).

Protein sequences, listed by entry. Tags and fused reporters are not part of them.
UniProt P37288, whole entry: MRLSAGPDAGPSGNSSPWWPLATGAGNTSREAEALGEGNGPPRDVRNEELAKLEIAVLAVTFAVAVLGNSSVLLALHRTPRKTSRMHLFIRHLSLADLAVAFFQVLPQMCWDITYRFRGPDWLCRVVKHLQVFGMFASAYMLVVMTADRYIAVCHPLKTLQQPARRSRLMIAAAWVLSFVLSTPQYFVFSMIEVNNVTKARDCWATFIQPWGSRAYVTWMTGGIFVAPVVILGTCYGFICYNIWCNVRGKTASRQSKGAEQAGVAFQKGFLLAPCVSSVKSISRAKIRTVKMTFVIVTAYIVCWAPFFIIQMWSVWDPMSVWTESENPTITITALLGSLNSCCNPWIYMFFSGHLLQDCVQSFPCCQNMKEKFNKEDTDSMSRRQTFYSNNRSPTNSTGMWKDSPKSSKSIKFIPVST

For the assay, the target named is V1a (Homo sapiens, UniProt P37288). As to the kind of experiment: Human vasopression V1a receptor binding assay. Set-up: host or cells: CHO cells (hV1a cell line), whole adherent cells. The settings on record: hV1a cell line (CHO). Here is the method: Human vasopression V1a receptor binding assay. A cell line expressing the human V1a receptor in CHO cells (henceforth referred to as the hV1a cell line) was obtained from Dr. Michael Brownstein, NIMH, Bethesda, Md., USA. The hV1a cDNA sequence is described by Thibonnier et al., Journal of Biological Chemistry, 269, 3304-3310 (1994), and the expression method was the same as described by Morel et al. (1992). The hV1a cell line was grown in alpha-MEM with 10% fetal bovine serum and 250 ug/ml G418 (Gibco, Grand Island, N.Y., USA). For competitive binding assay, hV1a cells were plated into 6-well culture plate at 1:10 dilution from a confluency flask, and maintained in culture for at least two days. Culture medium was then removed, cells were washed with 2 ml binding buffer (25 mM Hepes, 0.25% BSA, 1×DMEM, PH=7.0). To each well, 990 μl binding buffer containing 1 nM 3H-AVP was added, and followed by 10 μl series diluted Example compounds dissolved in DMSO. […] 100 nM cold AVP (Sigma) was used to assess non-specific binding. Cells were incubated for 45 minutes at 37° C., assay mixture was removed and each well was washed three times with PBS (pH=7.4). 1 ml 2% SDS was added per well and plates were let sit for 30 minutes. […] Samples were counted in a liquid scintillation counter (Beckman LS3801). IC50 values were calculated by Prism Curve fitting software. […]

In general, IC50 refers to the concentration needed to halve the response being measured. One may read the Ki as the equilibrium dissociation constant of an inhibitor or competing ligand from its target. Read a low Ki as higher affinity.

Take `O=C(NCc1cccc(C(F)(F)F)c1F)[C@@H](CC(=O)N1CCC(N2CCCCC2)CC1)N1C(=O)[C@@H](N2C(=O)OC[C@@H]2c2ccccc2)[C@H]1/C=C/c1ccccc1` [Example 222, 2(R)-[[4-(Piperidinyl)piperidinyl]carbonylmethyl]-2-[3(S)-(4(S)-phenyloxazolidin-2-on-3-yl)-4(R)-(2-styryl)azetidin-2-on-1-yl]acetic acid N-(2-fluoro-3-trifluoromethylbenzyl)carboxamide]: the concentration for half-maximal inhibition (IC50) (1 nM 3H-AVP, Table 17, read-out: V1a Binding Affinity (IC50 (nM))) worked out at 1.83 nM. Moreover, the Ki (Table 18) is 1.13 nM.
